What was measured:
human glucagon receptor = biological target: T1, human glucagon receptor (Homo sapiens, UniProt P47871); assay: cAMP response (HTRF) of HEK-293 cells stably expressing human glucagon receptor; format: cell-based; conditions: Table 5; cAMP, HEK-293; read-out: EC50 hGlucagon-R
T1 construct: expressed in transfected cells; host or cells: HEK-293

Amino acid sequences for entries named in this document (tags omitted). Residues count along the entry.
UniProt P47871, 26-477: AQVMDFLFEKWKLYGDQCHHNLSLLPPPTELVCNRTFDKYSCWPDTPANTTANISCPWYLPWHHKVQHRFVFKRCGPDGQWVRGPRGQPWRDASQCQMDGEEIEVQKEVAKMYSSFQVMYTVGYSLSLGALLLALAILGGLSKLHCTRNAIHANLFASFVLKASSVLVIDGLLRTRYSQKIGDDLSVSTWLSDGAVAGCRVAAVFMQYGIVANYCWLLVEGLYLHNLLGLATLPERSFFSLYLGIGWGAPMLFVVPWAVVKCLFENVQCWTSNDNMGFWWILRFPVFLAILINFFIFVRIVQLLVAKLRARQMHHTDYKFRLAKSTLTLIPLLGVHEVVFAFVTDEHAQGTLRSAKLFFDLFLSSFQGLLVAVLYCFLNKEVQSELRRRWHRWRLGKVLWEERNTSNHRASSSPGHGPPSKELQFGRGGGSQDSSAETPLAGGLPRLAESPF
UniProt P43220, 24-463: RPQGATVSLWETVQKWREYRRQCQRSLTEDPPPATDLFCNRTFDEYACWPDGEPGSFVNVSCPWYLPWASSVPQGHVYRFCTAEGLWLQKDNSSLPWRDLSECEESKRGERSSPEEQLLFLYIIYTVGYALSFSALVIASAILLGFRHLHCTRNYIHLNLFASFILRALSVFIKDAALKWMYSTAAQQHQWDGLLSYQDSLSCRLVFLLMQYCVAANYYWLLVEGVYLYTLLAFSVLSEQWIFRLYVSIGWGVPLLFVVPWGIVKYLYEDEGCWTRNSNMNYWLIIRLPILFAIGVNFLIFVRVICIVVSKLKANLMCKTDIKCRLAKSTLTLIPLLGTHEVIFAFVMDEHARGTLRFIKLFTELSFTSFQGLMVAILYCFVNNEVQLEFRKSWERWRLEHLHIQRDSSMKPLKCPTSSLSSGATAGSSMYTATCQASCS

human GLP-1 receptor = biological target: T2, human GLP-1 receptor (Homo sapiens, UniProt P43220); assay: cAMP response (HTRF) of HEK-293 cells stably expressing human GLP-1 receptor; format: cell-based; conditions: Table 5; cAMP, HEK-293; read-out: EC50 hGLP-1R
T2 construct: expressed in transfected cells; host or cells: HEK-293

Structure (SMILES) | EC50 (human glucagon receptor) | EC50 (human GLP-1 receptor)
CCCCCCCCCCCCCCCC(=O)N[C@@H](CCC(=O)N[C@@H](CCC(=O)NCCCC[C@H](NC(=O)[C@H](CCC(N)=O)NC(=O)[C@H](CCCCN)NC(=O)[C@H](CO)NC(=O)[C@H](CC(C)C)NC(=O)[C@H](CC(=O)O)NC(=O)[C@H](CO)NC(=O)[C@@H](NC(=O)[C@H](Cc1ccccc1)NC(=O)[C@@H](NC(=O)CNC(=O)[C@H](CCC(N)=O)NC(=O)[C@@H](CO)NC(=O)[C@@H](N)Cc1c[nH]cn1)[C@@H](C)O)[C@@H](C)O)C(=O)N[C@@H](CCC(=O)O)C(=O)N[C@@H](CO)C(=O)N[C@@H](CCCNC(=N)N)C(=O)N[C@@H](C)C(=O)N[C@@H](C)C(=O)N[C@@H](CCC(N)=O)C(=O)N[C@@H](CC(=O)O)C(=O)N[C@@H](Cc1ccccc1)C(=O)N[C@H](C(=O)N[C@@H](CCC(=O)O)C(=O)N[C@@H](Cc1c[nH]c2ccccc12)C(=O)N[C@@H](CC(C)C)C(=O)N[C@@H](CCCCN)C(=O)N[C@@H](C)C(=O)NCC(=O)NCC(=O)N1CCC[C@H]1C(=O)N[C@@H](CO)C(=O)N[C@@H](CO)C(=O)NCC(=O)N[C@@H](C)C(=O)N1CCC[C@H]1C(=O)N1CCC[C@H]1C(=O)N1CCC[C@H]1C(=O)N[C@@H](CO)C(N)=O)[C@@H](C)CC)C(=O)O)C(=O)O [compound 49] | 2.9 pM | 1.1 pM
CCCCCCCCCCCCCCCC(=O)NCCCC(=O)NCCCC[C@H](NC(=O)[C@H](CCC(N)=O)NC(=O)[C@H](CCCCN)NC(=O)[C@H](CO)NC(=O)[C@H](CC(C)C)NC(=O)[C@H](CC(=O)O)NC(=O)[C@H](CO)NC(=O)[C@@H](NC(=O)[C@H](Cc1ccccc1)NC(=O)[C@@H](NC(=O)CNC(=O)[C@H](CCC(N)=O)NC(=O)[C@@H](CO)NC(=O)[C@@H](N)Cc1c[nH]cn1)[C@@H](C)O)[C@@H](C)O)C(=O)N[C@@H](CCC(=O)O)C(=O)N[C@@H](CO)C(=O)N[C@@H](CCCNC(=N)N)C(=O)N[C@@H](C)C(=O)N[C@@H](C)C(=O)N[C@@H](CCC(N)=O)C(=O)N[C@@H](CC(=O)O)C(=O)N[C@@H](Cc1ccccc1)C(=O)N[C@H](C(=O)N[C@@H](CCC(=O)O)C(=O)N[C@@H](Cc1c[nH]c2ccccc12)C(=O)N[C@@H](CC(C)C)C(=O)N[C@@H](CCCCN)C(=O)N[C@@H](C)C(=O)NCC(=O)NCC(=O)N1CCC[C@H]1C(=O)N[C@@H](CO)C(=O)N[C@@H](CO)C(=O)NCC(=O)N[C@@H](C)C(=O)N1CCC[C@H]1C(=O)N1CCC[C@H]1C(=O)N1CCC[C@H]1C(=O)N[C@@H](CO)C(N)=O)[C@@H](C)CC [compound 50] | 11.1 pM | 3.3 pM
CCCCCCCCCCCCCCCCCC(=O)N[C@@H](CCC(=O)NCCCC[C@H](NC(=O)[C@H](CCC(N)=O)NC(=O)[C@H](CCCCN)NC(=O)[C@H](CO)NC(=O)[C@H](CC(C)C)NC(=O)[C@H](CC(=O)O)NC(=O)[C@H](CO)NC(=O)[C@@H](NC(=O)[C@H](Cc1ccccc1)NC(=O)[C@@H](NC(=O)CNC(=O)[C@H](CCC(N)=O)NC(=O)[C@@H](CO)NC(=O)[C@@H](N)Cc1c[nH]cn1)[C@@H](C)O)[C@@H](C)O)C(=O)N[C@@H](CCC(=O)O)C(=O)N[C@@H](CO)C(=O)N[C@@H](CCCNC(=N)N)C(=O)N[C@@H](C)C(=O)N[C@@H](C)C(=O)N[C@@H](CCC(N)=O)C(=O)N[C@@H](CC(=O)O)C(=O)N[C@@H](Cc1ccccc1)C(=O)N[C@H](C(=O)N[C@@H](CCC(=O)O)C(=O)N[C@@H](Cc1c[nH]c2ccccc12)C(=O)N[C@@H](CC(C)C)C(=O)N[C@@H](CCCCN)C(=O)N[C@@H](C)C(=O)NCC(=O)NCC(=O)N1CCC[C@H]1C(=O)N[C@@H](CO)C(=O)N[C@@H](CO)C(=O)NCC(=O)N[C@@H](C)C(=O)N1CCC[C@H]1C(=O)N1CCC[C@H]1C(=O)N1CCC[C@H]1C(=O)N[C@@H](CO)C(N)=O)[C@@H](C)CC)C(=O)O [compound 51] | 3 pM | 2.7 pM
CCCCCCCCCCCCCCCCCC(=O)N[C@@H](CCC(=O)N[C@@H](CCC(=O)NCCCC[C@H](NC(=O)[C@H](CCC(N)=O)NC(=O)[C@H](CCCCN)NC(=O)[C@H](CO)NC(=O)[C@H](CC(C)C)NC(=O)[C@H](CC(=O)O)NC(=O)[C@H](CO)NC(=O)[C@@H](NC(=O)[C@H](Cc1ccccc1)NC(=O)[C@@H](NC(=O)CNC(=O)[C@H](CCC(N)=O)NC(=O)[C@@H](CO)NC(=O)[C@@H](N)Cc1c[nH]cn1)[C@@H](C)O)[C@@H](C)O)C(=O)N[C@@H](CCC(=O)O)C(=O)N[C@@H](CO)C(=O)N[C@@H](CCCNC(=N)N)C(=O)N[C@@H](C)C(=O)N[C@@H](C)C(=O)N[C@@H](CCC(N)=O)C(=O)N[C@@H](CC(=O)O)C(=O)N[C@@H](Cc1ccccc1)C(=O)N[C@H](C(=O)N[C@@H](CCC(=O)O)C(=O)N[C@@H](Cc1c[nH]c2ccccc12)C(=O)N[C@@H](CC(C)C)C(=O)N[C@@H](CCCCN)C(=O)N[C@@H](C)C(=O)NCC(=O)NCC(=O)N1CCC[C@H]1C(=O)N[C@@H](CO)C(=O)N[C@@H](CO)C(=O)NCC(=O)N[C@@H](C)C(=O)N1CCC[C@H]1C(=O)N1CCC[C@H]1C(=O)N1CCC[C@H]1C(=O)N[C@@H](CO)C(N)=O)[C@@H](C)CC)C(=O)O)C(=O)O [compound 52] | 2 pM | 1.9 pM
CCCCCCCCCCCCCCCCCC(=O)NCCCC(=O)NCCCC[C@H](NC(=O)[C@H](CCC(N)=O)NC(=O)[C@H](CCCCN)NC(=O)[C@H](CO)NC(=O)[C@H](CC(C)C)NC(=O)[C@H](CC(=O)O)NC(=O)[C@H](CO)NC(=O)[C@@H](NC(=O)[C@H](Cc1ccccc1)NC(=O)[C@@H](NC(=O)CNC(=O)[C@H](CCC(N)=O)NC(=O)[C@@H](CO)NC(=O)[C@@H](N)Cc1c[nH]cn1)[C@@H](C)O)[C@@H](C)O)C(=O)N[C@@H](CCC(=O)O)C(=O)N[C@@H](CO)C(=O)N[C@@H](CCCNC(=N)N)C(=O)N[C@@H](C)C(=O)N[C@@H](C)C(=O)N[C@@H](CCC(N)=O)C(=O)N[C@@H](CC(=O)O)C(=O)N[C@@H](Cc1ccccc1)C(=O)N[C@H](C(=O)N[C@@H](CCC(=O)O)C(=O)N[C@@H](Cc1c[nH]c2ccccc12)C(=O)N[C@@H](CC(C)C)C(=O)N[C@@H](CCCCN)C(=O)N[C@@H](C)C(=O)NCC(=O)NCC(=O)N1CCC[C@H]1C(=O)N[C@@H](CO)C(=O)N[C@@H](CO)C(=O)NCC(=O)N[C@@H](C)C(=O)N1CCC[C@H]1C(=O)N1CCC[C@H]1C(=O)N1CCC[C@H]1C(=O)N[C@@H](CO)C(N)=O)[C@@H](C)CC [compound 53] | 6.5 pM | 5.4 pM
CCCCCCCCCCCCCCCCCC(=O)NCCC(=O)NCCC(=O)NCCCC[C@H](NC(=O)[C@H](CCC(N)=O)NC(=O)[C@H](CCCCN)NC(=O)[C@H](CO)NC(=O)[C@H](CC(C)C)NC(=O)[C@H](CC(=O)O)NC(=O)[C@H](CO)NC(=O)[C@@H](NC(=O)[C@H](Cc1ccccc1)NC(=O)[C@@H](NC(=O)CNC(=O)[C@H](CCC(N)=O)NC(=O)[C@@H](CO)NC(=O)[C@@H](N)Cc1c[nH]cn1)[C@@H](C)O)[C@@H](C)O)C(=O)N[C@@H](CCC(=O)O)C(=O)N[C@@H](CO)C(=O)N[C@@H](CCCNC(=N)N)C(=O)N[C@@H](C)C(=O)N[C@@H](C)C(=O)N[C@@H](CCC(N)=O)C(=O)N[C@@H](CC(=O)O)C(=O)N[C@@H](Cc1ccccc1)C(=O)N[C@H](C(=O)N[C@@H](CCC(=O)O)C(=O)N[C@@H](Cc1c[nH]c2ccccc12)C(=O)N[C@@H](CC(C)C)C(=O)N[C@@H](CCCCN)C(=O)N[C@@H](C)C(=O)NCC(=O)NCC(=O)N1CCC[C@H]1C(=O)N[C@@H](CO)C(=O)N[C@@H](CO)C(=O)NCC(=O)N[C@@H](C)C(=O)N1CCC[C@H]1C(=O)N1CCC[C@H]1C(=O)N1CCC[C@H]1C(=O)N[C@@H](CO)C(N)=O)[C@@H](C)CC [compound 54] | 4 pM | 4.8 pM
CCCCCCCC/C=C\CCCCCCCC(=O)N[C@@H](CCC(=O)NCCCC[C@H](NC(=O)[C@H](CCC(N)=O)NC(=O)[C@H](CCCCN)NC(=O)[C@H](CO)NC(=O)[C@H](CC(C)C)NC(=O)[C@H](CC(=O)O)NC(=O)[C@H](CO)NC(=O)[C@@H](NC(=O)[C@H](Cc1ccccc1)NC(=O)[C@@H](NC(=O)CNC(=O)[C@H](CCC(N)=O)NC(=O)[C@@H](CO)NC(=O)[C@@H](N)Cc1c[nH]cn1)[C@@H](C)O)[C@@H](C)O)C(=O)N[C@@H](CCC(=O)O)C(=O)N[C@@H](CO)C(=O)N[C@@H](CCCNC(=N)N)C(=O)N[C@@H](C)C(=O)N[C@@H](C)C(=O)N[C@@H](CCC(N)=O)C(=O)N[C@@H](CC(=O)O)C(=O)N[C@@H](Cc1ccccc1)C(=O)N[C@H](C(=O)N[C@@H](CCC(=O)O)C(=O)N[C@@H](Cc1c[nH]c2ccccc12)C(=O)N[C@@H](CC(C)C)C(=O)N[C@@H](CCCCN)C(=O)N[C@@H](C)C(=O)NCC(=O)NCC(=O)N1CCC[C@H]1C(=O)N[C@@H](CO)C(=O)N[C@@H](CO)C(=O)NCC(=O)N[C@@H](C)C(=O)N1CCC[C@H]1C(=O)N1CCC[C@H]1C(=O)N1CCC[C@H]1C(=O)N[C@@H](CO)C(N)=O)[C@@H](C)CC)C(=O)O [compound 55] | 15.8 pM | 5.4 pM
CCCCCCCC/C=C\CCCCCCCC(=O)NCCCC(=O)NCCCC[C@H](NC(=O)[C@H](CCC(N)=O)NC(=O)[C@H](CCCCN)NC(=O)[C@H](CO)NC(=O)[C@H](CC(C)C)NC(=O)[C@H](CC(=O)O)NC(=O)[C@H](CO)NC(=O)[C@@H](NC(=O)[C@H](Cc1ccccc1)NC(=O)[C@@H](NC(=O)CNC(=O)[C@H](CCC(N)=O)NC(=O)[C@@H](CO)NC(=O)[C@@H](N)Cc1c[nH]cn1)[C@@H](C)O)[C@@H](C)O)C(=O)N[C@@H](CCC(=O)O)C(=O)N[C@@H](CO)C(=O)N[C@@H](CCCNC(=N)N)C(=O)N[C@@H](C)C(=O)N[C@@H](C)C(=O)N[C@@H](CCC(N)=O)C(=O)N[C@@H](CC(=O)O)C(=O)N[C@@H](Cc1ccccc1)C(=O)N[C@H](C(=O)N[C@@H](CCC(=O)O)C(=O)N[C@@H](Cc1c[nH]c2ccccc12)C(=O)N[C@@H](CC(C)C)C(=O)N[C@@H](CCCCN)C(=O)N[C@@H](C)C(=O)NCC(=O)NCC(=O)N1CCC[C@H]1C(=O)N[C@@H](CO)C(=O)N[C@@H](CO)C(=O)NCC(=O)N[C@@H](C)C(=O)N1CCC[C@H]1C(=O)N1CCC[C@H]1C(=O)N1CCC[C@H]1C(=O)N[C@@H](CO)C(N)=O)[C@@H](C)CC [compound 56] | 29.3 pM | 4.5 pM

Source: patent publication US20140100156A1 (SANOFI, priority 2012, published 2014)
